BindingDB's records for doi:10.1124/mol.62.4.947 (National Cancer Institute-Bethesda, 2002)

Amino acid sequences for entries named in this document (tags omitted).
UniProt O35433, whole entry: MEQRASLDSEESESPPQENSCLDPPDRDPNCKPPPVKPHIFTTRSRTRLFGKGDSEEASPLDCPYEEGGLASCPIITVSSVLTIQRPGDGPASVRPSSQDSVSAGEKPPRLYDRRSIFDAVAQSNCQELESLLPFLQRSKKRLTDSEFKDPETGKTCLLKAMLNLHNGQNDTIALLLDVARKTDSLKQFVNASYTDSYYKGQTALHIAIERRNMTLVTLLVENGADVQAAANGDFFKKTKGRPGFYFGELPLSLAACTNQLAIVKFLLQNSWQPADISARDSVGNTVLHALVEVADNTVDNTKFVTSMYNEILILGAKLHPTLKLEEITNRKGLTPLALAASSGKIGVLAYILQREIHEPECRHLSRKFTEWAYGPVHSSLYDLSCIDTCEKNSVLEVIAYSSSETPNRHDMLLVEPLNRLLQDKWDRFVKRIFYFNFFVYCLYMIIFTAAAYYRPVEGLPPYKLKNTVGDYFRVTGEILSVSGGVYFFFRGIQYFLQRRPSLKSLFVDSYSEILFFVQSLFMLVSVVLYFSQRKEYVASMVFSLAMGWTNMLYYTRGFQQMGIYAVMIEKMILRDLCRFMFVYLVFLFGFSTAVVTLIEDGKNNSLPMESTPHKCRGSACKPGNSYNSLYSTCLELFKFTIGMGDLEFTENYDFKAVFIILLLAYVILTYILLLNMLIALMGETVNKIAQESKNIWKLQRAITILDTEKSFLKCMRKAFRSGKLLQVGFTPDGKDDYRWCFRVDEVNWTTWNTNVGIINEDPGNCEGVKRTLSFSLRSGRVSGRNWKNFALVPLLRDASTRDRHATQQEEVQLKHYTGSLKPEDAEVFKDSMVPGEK

Target: Transient receptor potential cation channel subfamily V member 1 (Rattus norvegicus, UniProt O35433)

Q: Which Ki does the source give for `CC(C)(C)c1ccc(CNC(=S)NCc2ccc(NS(C)(=O)=O)cc2)cc1` [3-[(4-tert-butylphenyl)methyl]-1-[(4-methanesulfonamidophenyl)methyl]thiourea] here?
A: 53.9 nM
